# Assay results from PubChem BioAssay (EPA / NIEHS).
# The entries are a selection whose mix differs from that of the whole data set. The source made the active and inactive calls. The calls were made as follows: active = hit-call score of the fitted dose curve at least 0.9, where 1 is the maximum; inactive = score below 0.9.
# Test: ATG_PPRE_CIS: Attagene CIS-FACTORIAL HepG2 Assay for human Peroxisome Proliferator-activated Response Element (PPRE) (AID 2282958)
# Conditions: HepG2 PPRE cis-element reporter, Attagene transcription factor profiling; actives raise or lower the signal
Structure (SMILES),outcome,AC50
CCOP(OCC)OCC,inactive,–
CCOC(=O)CC(=O)CCl,inactive,–
Nc1c(Cl)c(F)nc(OCC(=O)O)c1Cl,inactive,–
Nc1ccc(Cl)cc1N,–,active: 36.5 µM
Oc1cc(Cl)c(Cl)cc1Cl,–,active: 27.7 µM
COc1ccc(-c2ccccc2)cc1NNC(=O)OC(C)C,–,active: 16.3 µM
Clc1ccc(C(Cl)(Cl)Cl)cc1,inactive,–
O=C(OC1CCCCC1)c1ccccc1C(=O)OC1CCCCC1,–,active: 12.7 µM
Cc1[nH]c(=O)n(C(C)(C)C)c(=O)c1Cl,–,active: 20.7 µM
COC(=O)c1ccccc1C(=O)OC,inactive,–
O=C(O)CCl,inactive,–
Nc1ccc(-c2ccc(N)cc2)cc1,inactive,–
c1ccc(OP(Oc2ccccc2)Oc2ccccc2)cc1,inactive,–
O=c1[nH]c2ccccc2n1C1CCN(CCCC(c2ccc(F)cc2)c2ccc(F)cc2)CC1,inactive,–
C[C@]12CCC(=O)C(O)=C1CC[C@@H]1[C@@H]2CC[C@]2(C)C(=O)CC[C@@H]12,inactive,–
CC1CN1P(=O)(N1CC1C)N1CC1C (stereo unspecified),inactive,–
O=S1OC[C@@H]2[C@H](CO1)[C@]1(Cl)C(Cl)=C(Cl)[C@@]2(Cl)C1(Cl)Cl (stereo partly specified),inactive,–
ClCCCCCCCl,inactive,–

Structure (SMILES),outcome,AC50
CCOCN(C(=O)CCl)c1c(C)cccc1CC,inactive,–
NNc1ccccc1,inactive,–
CCNc1nc(NCC)nc(SC)n1,inactive,–
Nc1ccc(-c2ccc(N)c(Cl)c2)cc1Cl,–,active: 12.5 µM
C1CN2CCN1CC2,inactive,–
CCOC(=O)C1OC1(C)c1ccccc1 (stereo unspecified),inactive,–
COc1cc(OC)c(OC)cc1C=O,inactive,–
COc1cc2c(cc1OC)[C@@]13CCN4CC5=CCO[C@H]6CC(=O)N2[C@H]1[C@H]6[C@H]5C[C@H]43,inactive,–
Cc1ccc(N)cc1,inactive,–
O=[N+]([O-])/N=C1\NCCN1Cc1ccc(Cl)nc1,inactive,–
O=C1C=CC(=O)C=C1,inactive,–
CCN(CC)c1ccccc1,inactive,–
Cc1cccc(N)c1N,–,active: 52.9 µM
c1ccc(N=Nc2ccccc2)cc1,–,active: 26.3 µM
CC1(C)Cc2cccc(O)c2O1,inactive,–
CCOC(=O)C(SP(=S)(OC)OC)c1ccccc1 (stereo unspecified),inactive,–
CCC1(c2ccc(N)cc2)CCC(=O)NC1=O (stereo unspecified),inactive,–
CCNP(=S)(OC)O/C(C)=C/C(=O)OC(C)C (stereo unspecified),–,active: 21.2 µM
